# Experimental data reported in patent US20240207463A1, “RADIOACTIVE COMPLEX OF ANTI-EGFR ANTIBODY, AND RADIOPHARMACEUTICAL” (NIHON MEDI-PHYSICS CO., LTD., priority 2021, published 2024).
# System: A431 cells
# Test: Antitumor effect in subcutaneous tumor-bearing model of A431
# Type: in vivo
# Conditions: 15 kBq/mouse, 37 days observation
substance,measurement,value
Comparative Example 1: Conjugate with cetuximab by using 225Ac-labeled DOTA-DBCO; contains a thiourea bond [reference compound],general condition and sign of toxicity (loss of weight),no sign of toxicity such as significant loss of weight was observed
